## Experimental melting point values from OPERA 2.9

Values as listed in the OPERA 2.9 repository of K. Mansouri.

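The OPERA project collected these measurements from public sources as training and test data for property models. A listed value is a point estimate from one report or more. Method and conditions are not stated for these values. The measured form (salt, isomer or mixture) is not always the one drawn. Some entries may be limits or estimates that an upstream database listed as plain numbers.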

The melting point is given in degrees Celsius.
"via" names the databases from which the curators took the value.

O=C(O)c1ccc(N2C(=O)C=CC2=O)cc1 [4-(2,5-Dihydro-2,5-dioxo-1H-pyrrol-1-yl)benzoic acid] has mp 230 °C (via OCHEM). For CN(C)Cc1ccc(C(=O)NN)o1 [5-[(dimethylamino)methyl]-2-furohydrazide] the data give mp 117 °C (via OCHEM). N=C(O)C1CNCCN1 (centres undefined) [Piperazine-2-carboximidic acid] has mp 143 °C (via OCHEM). For N#Cc1c(Cl)nsc1Cl [3,5-Dichloroisothiazole-4-carbonitrile] the data give mp 65 °C (via OCHEM). COC(=O)C1(C(=O)OC)CC1 [1,1-Cyclopropanedicarboxylic acid, dimethyl ester] has mp 1.62 °C (via eChemPortal). For O=c1[nH]c2cc([N+](=O)[O-])ccc2o1 [5-Nitro-1,3-benzoxazol-2(3H)-one] the data give mp 230 °C (via OCHEM). Listed for OCCCCCCCCCSCCCC(F)(F)C(F)(F)F [9-[(4,4,5,5,5-Pentafluoropentyl)sulfanyl]nonan-1-ol]: mp 41 °C (via ChemicalBook).

CC(=O)OCC(=O)[C@@]1(OC(C)=O)CC[C@H]2[C@@H]3C[C@H](F)C4=CC(=O)C=C[C@]4(C)C34O[C@@H]4C[C@@]21C (some centres undefined) has mp 207.8 °C (via eChemPortal). Listed for CNC(=O)c1c(I)c(C(=O)NCC(=O)Nc2c(I)c(C(=O)O)c(I)c(C(=O)NCCO)c2I)c(I)c(N(C)C(C)=O)c1I [Ioxaglic acid]: mp 254 °C (via PubChem). NC(=O)c1cc(Br)ccc1N [2-amino-5-bromobenzamide] is reported with mp 184 °C (via OCHEM). Listed for COc1ccc(C=C(C(=O)O)c2cccs2)cc1 [2-Thiopheneacetic acid,a-[(4-methoxyphenyl)methylene]-]: mp 206 °C (via OCHEM). Cc1cc(CN)ccc1C(N)=O [4-(Aminomethyl)-2-methylbenzamide] is reported with mp 91 °C (via OCHEM). Listed for O=C(O)Cn1nc(-c2ccccc2)oc1=O [(2-oxo-5-phenyl-1,3,4-oxadiazol-3(2H)-yl)acetic acid]: mp 197 °C (via OCHEM). Cn1c(CC#N)nc2ccccc21 [1-Methyl-2-benzimidazoleacetonitrile] is reported with mp 130 °C (via OCHEM).

CC(C)(C)c1cc(C(C)(CC(=O)OCCOC(=O)CC(C)(c2ccc(O)c(C(C)(C)C)c2)c2ccc(O)c(C(C)(C)C)c2)c2ccc(O)c(C(C)(C)C)c2)ccc1O is reported with mp 169.3 °C (via eChemPortal). Cc1[nH]c(=O)[nH]c(=O)c1C#N has mp 352 °C (via OCHEM). The entry for O=Cc1sc(N2CCOCC2)nc1-c1ccccc1 [2-(Morpholin-4-yl)-4-phenyl-1,3-thiazole-5-carbaldehyde] lists mp 182 °C (via OCHEM). Listed for O=Cc1cn(-c2ccccc2)nc1-c1ccc(Br)cc1 [3-(4-Bromophenyl)-1-phenyl-1H-pyrazole-4-carbaldehyde]: mp 142 °C (via OCHEM). For COc1ccccc1-c1n[nH]c(=S)n1N [4-Amino-5-(2-methoxy-phenyl)-4H-[1,2,4]triazole-3-thiol] the data give mp 215 °C (via OCHEM). Listed for Cc1cccc([N+](=O)[O-])c1I [2-iodo-1-methyl-3-nitrobenzene]: mp 68 °C (via OCHEM). For Cc1cc(NN)nc2ccccc12 [2-hydrazino-4-methylquinoline] the data give mp 147 °C (via OCHEM).

S=C([S-])NCCNC(=S)[S-].[Mn+2] [Maneb] is reported with mp 200 °C (via PubChem). The entry for Cc1cc(OCC(=O)O)ccc1C(C)C [(4-Isopropyl-3-methyl-phenoxy)-acetic acid] lists mp 119 °C (via OCHEM). O=C(O)c1ccc(N2CCOCC2)c([N+](=O)[O-])c1 [4-(Morpholin-4-yl)-3-nitrobenzoic acid] has mp 187 °C (via OCHEM). Listed for O=C(c1ccc(F)cc1)N1CCNCC1 [1-(4-fluorobenzoyl)piperazine]: mp 75 °C (via OCHEM). Listed for CN(C)c1ccc(Cn2nccc2N)cc1 [1-{[4-(Dimethylamino)phenyl]methyl}-1H-pyrazol-5-amine]: mp 61 °C (via OCHEM). The entry for Cc1ccc(-c2cc(C(=O)O)[nH]n2)cc1 [3-(4-methylphenyl)-1H-pyrazole-5-carboxylic acid] lists mp 252 °C (via OCHEM). Listed for CC(=O)OC[C@H]1O[C@H](Br)[C@H](OC(C)=O)[C@@H](OC(C)=O)[C@@H]1OC(C)=O [Acetobromglucose]: mp 88.5 °C (via OCHEM).

For Cc1cc(I)cnc1Br [2-Bromo-5-iodo-3-methylpyridine] the data give mp 44.5 °C (via OCHEM). CC(C)CCCCCCCOC(=O)CC(C(=O)OCCCCCCCC(C)C)S(=O)(=O)[O-].[Na+] (centres undefined) [Sodium 1,4-diisodecyl sulphonatosuccinate] has mp 197 °C (via eChemPortal). The entry for CCOC(=O)CNc1ccc(F)cc1 [ethyl 2-(4-fluoroanilino)acetate] lists mp 75 °C (via OCHEM). O=C(O)c1ccc(CS(=O)(=O)c2ccccc2)cc1 [4-[(Benzenesulfonyl)methyl]benzoic acid] is reported with mp 298 °C (via OCHEM). Cc1noc(N)c1C(=O)O [5-amino-3-methylisoxazole-4-carboxylic acid] has mp 152 °C (via OCHEM). For CCn1c(N)nc2ccccc21 [1-Ethyl-1H-benzoimidazol-2-ylamine] the data give mp 153 °C (via OCHEM). Listed for Cc1cc(Br)cc(C)c1C(=O)O [4-bromo-2,6-dimethylbenzoic acid]: mp 185 °C (via OCHEM).

The entry for O=Cc1c(Cl)nc2ccccn2c1=O [4H-Pyrido(1,2-a)pyrimidine-3-carboxaldehyde, 2-chloro-4-oxo-] lists mp 214 °C (via OCHEM). Cc1ccc(C(=O)Nc2ccccc2N)cc1 [N-(2-aminophenyl)-4-methylbenzamide] has mp 155 °C (via OCHEM). Listed for Cc1ccc(-c2cc(CBr)on2)cc1 [5-(Bromomethyl)-3-(4-methylphenyl)-1,2-oxazole]: mp 87 °C (via OCHEM). For CC(=O)Nc1ccc2nn(C3CCCC3)nc2c1 [N-(2-Cyclopentyl-2H-benzotriazol-5-yl)acetamide] the data give mp 94 °C (via OCHEM). O=C(O)c1ccc(-n2cccn2)nc1 [6-(1H-pyrazol-1-yl)nicotinic acid] is reported with mp 268 °C (via OCHEM). The entry for Nc1nc(-c2ccccc2)c(-c2ccccc2)s1 [Bax 439] lists mp 182 °C (via OCHEM). COc1ccccc1OCCC(=O)O [3-(2-methoxyphenoxy)propanoic acid] is reported with mp 134 °C (via OCHEM).

The entry for CCOc1ccc(C2(C)N=C(O)N=C2O)cc1 (centres undefined) [4-(4-Ethoxyphenyl)-4-methyl-4H-imidazole-2,5-diol] lists mp 191 °C (via OCHEM). The entry for Cc1cc(N)n(-c2ccccn2)n1 [3-Methyl-1-(pyridin-2-yl)-1H-pyrazol-5-amine] lists mp 103 °C (via OCHEM). The entry for O=C(Nc1ccc(Cl)cc1)OCC(F)(F)F [2,2,2-trifluoroethyl 4-chlorophenylcarbamate] lists mp 70 °C (via OCHEM). The entry for O=[N+]([O-])c1ccc(OCc2ccccc2)cc1 [Benzene, 1-nitro-4-(phenylmethoxy)-] lists mp 93 °C (via OCHEM). COc1ccc(C(=O)Oc2ccc(C=O)cc2OC)cc1 [4-formyl-2-methoxyphenyl 4-methoxybenzoate] has mp 96.5 °C (via OCHEM). The entry for CCCCCCC(O)CCCCCCCCCCC(=O)[O-].[Li+] (centres undefined) [Octadecanoic acid, 12-hydroxy-, monolithium salt] lists mp 220 °C (via eChemPortal). CCOc1ccc(/N=N/c2ccc(-c3ccc(/N=N/c4c(O)ccc5cc(S(=O)(=O)[O-])cc(S(=O)(=O)[O-])c45)c(C)c3)cc2C)cc1.[Na+].[Na+] [C.I. Direct Red 39] is reported with mp 285 °C (via PubChem).

CC(Cl)C(=O)c1c[nH]c2ccccc12 (centres undefined) [2-chloro-1-(1H-indol-3-yl)propan-1-one] is reported with mp 191 °C (via OCHEM). Cc1ccccc1C(=O)CC#N [2-METHYLBENZOYLACETONITRILE] is reported with mp 85 °C (via OCHEM). Listed for NNc1cn[nH]c(=O)c1Cl [4-Chloro-5-hydrazino-3-pyridazinol]: mp 172 °C (via OCHEM). Listed for Cc1nn(-c2ccccc2)c(C)c1N [3,5-dimethyl-1-phenyl-1H-pyrazol-4-amine]: mp 62 °C (via OCHEM).